# From US12357591B2, “Sublingual epinephrine compositions including pH-modifying excipients and penetration enhancers and methods for use thereof” (Nova Southeastern University, priority 2018, dated 2025)
# Where two headings read alike, the source gives them in different places.
# Method: Frozen pig's heads were obtained from local abattoir. Then, they were defrosted at room temperature. The porcine mucosa were excised by dissecting the sublingual mucosa and removing the underlying connective tissue using a scalpel and fine tweezers using established surgical techniques. The excised mucosa were frozen on aluminum foil at −20° C. until used (<4 weeks).
# The sublingual mucosa (floor of the mouth) excised from pigs were used as the diffusion membranes. Mcvilian buffer at various pH was used in the donor cell as a diffusion medium.
# Before each experiment, the mucosal membranes were defrosted at room temperature and mounted between the donor and receptor chambers and clamped using a metal clamp. The receptor chamber that has a magnetic stirrer was filled with the diffusion medium before mounting the membranes and air bubbles were removed after mounting the membranes and before the experiment. The water bath was set at 37° C. for the circulating water in the jacketed Franz Cells. The mounted membranes were equilibrated with the diffusion medium for 30 min from both sides before the experiment and were checked for any leaks.
# Aliquots were withdrawn from the receptor chamber using 6 inch-long needles (Popper & Sons. Inc, New Hyde Park, NYC) and 1 mL syringes at 5, 10, 15, 20, 30, 45, 60, 75, and 90 min. The withdrawn volumes were replaced with fresh medium.
# Samples were transferred to HPLC vials for HPLC analysis according to USP Method.
compound,measurement,setting,value
"CNC[C@H](O)c1ccc(O)c(O)c1 [Epi, Epinephrine]",percentage of diffused epinephrine (%),"pH 5, 5 min",0.5 ± 0.03%
same,percentage of diffused epinephrine (%),"pH 5, 10 min",0.6 ± 0.01%
same,cumulative permeated epinephrine (20 mg) per area,"pH 5, 15 min",40.3 ± 1.3 μg/cm^2
same,percentage of diffused epinephrine (%),"pH 5, 15 min",0.6 ± 0.02%
same,cumulative permeated epinephrine (20 mg) per area,"pH 5, 20 min",43.6 ± 1.1 μg/cm^2
same,percentage of diffused epinephrine (%),"pH 5, 20 min",0.7 ± 0.02%
same,cumulative permeated epinephrine (20 mg) per area,"pH 5, 30 min",46.7 ± 1.4 μg/cm^2
same,percentage of diffused epinephrine (%),"pH 5, 30 min",0.7 ± 0.02%
same,cumulative permeated epinephrine (20 mg) per area,"pH 5, 45 min",50.7 ± 1.5 μg/cm^2
same,percentage of diffused epinephrine (%),"pH 5, 45 min",0.8 ± 0.02%
same,cumulative permeated epinephrine (20 mg) per area,"pH 5, 60 min",58.7 ± 3.9 μg/cm^2
same,percentage of diffused epinephrine (%),"pH 5, 60 min",0.3 ± 0.06%
same,cumulative permeated epinephrine (20 mg) per area,"pH 5, 75 min",78.2 ± 7.5 μg/cm^2
same,percentage of diffused epinephrine (%),"pH 5, 75 min",1.2 ± 0.12%
same,cumulative permeated epinephrine (20 mg) per area,"pH 5, 90 min",118.1 ± 3.5 μg/cm^2
same,percentage of diffused epinephrine (%),"pH 5, 90 min",1.9 ± 0.6%
same,cumulative permeated epinephrine (20 mg) per area,"pH 6, 5 min",4.7 ± 1.5 μg/cm^2
same,percentage of diffused epinephrine (%),"pH 6, 5 min",0.1 ± 0.02%
same,cumulative permeated epinephrine (20 mg) per area,"pH 6, 10 min",7.7 ± 1.6 μg/cm^2
same,percentage of diffused epinephrine (%),"pH 6, 10 min",0.1 ± 0.02%
same,cumulative permeated epinephrine (20 mg) per area,"pH 6, 15 min",11.6 ± 1.0 μg/cm^2
same,percentage of diffused epinephrine (%),"pH 6, 15 min",0.2 ± 0.02%
same,percentage of diffused epinephrine (%),"pH 6, 20 min",0.2 ± 0.05%
same,cumulative permeated epinephrine (20 mg) per area,"pH 6, 30 min",23.2 ± 6.0 μg/cm^2
same,percentage of diffused epinephrine (%),"pH 6, 30 min",0.4 ± 0.09%
same,cumulative permeated epinephrine (20 mg) per area,"pH 6, 45 min",43.3 ± 15.5 μg/cm^2
same,percentage of diffused epinephrine (%),"pH 6, 45 min",0.7 ± 0.24%
same,cumulative permeated epinephrine (20 mg) per area,"pH 6, 60 min",66.4 ± 3.6 μg/cm^2
same,percentage of diffused epinephrine (%),"pH 6, 60 min",1.0 ± 0.06%
same,cumulative permeated epinephrine (20 mg) per area,"pH 6, 75 min",147.8 ± 41.1 μg/cm^2
same,percentage of diffused epinephrine (%),"pH 6, 75 min",2.3 ± 0.64%
same,cumulative permeated epinephrine (20 mg) per area,"pH 6, 90 min",240.0 ± 68.5 μg/cm^2
same,percentage of diffused epinephrine (%),"pH 6, 90 min",3.8 ± 1.08%
same,cumulative permeated epinephrine (20 mg) per area,"pH 6.6, 5 min",20.2 ± 1.2 μg/cm^2
same,cumulative permeated epinephrine (20 mg) per area,"pH 6.6, 10 min",27.6 ± 0.4 μg/cm^2
same,cumulative permeated epinephrine (20 mg) per area,"pH 6.6, 15 min",44.9 ± 3.0 μg/cm^2
same,cumulative permeated epinephrine (20 mg) per area,"pH 6.6, 20 min",115.3 ± 2.6 μg/cm^2
same,cumulative permeated epinephrine (20 mg) per area,"pH 6.6, 30 min",119.9 ± 2.9 μg/cm^2
same,cumulative permeated epinephrine (20 mg) per area,"pH 6.6, 45 min",447.5 ± 212.7 μg/cm^2
same,cumulative permeated epinephrine (20 mg) per area,"pH 6.6, 60 min",877.6 ± 24 μg/cm^2
same,cumulative permeated epinephrine (20 mg) per area,"pH 6.6, 75 min",889.7 ± 3.2 μg/cm^2
same,cumulative permeated epinephrine (20 mg) per area,"pH 6.6, 90 min",1401.5 ± 85.0 μg/cm^2
same,percentage of diffused epinephrine (%),"pH 6.8, 5 min",0.3 ± 0.02%
same,percentage of diffused epinephrine (%),"pH 6.8, 10 min",0.4 ± 0.01%
same,percentage of diffused epinephrine (%),"pH 6.8, 15 min",0.7 ± 0.05%
same,percentage of diffused epinephrine (%),"pH 6.8, 20 min",1.8 ± 0.04%
same,percentage of diffused epinephrine (%),"pH 6.8, 30 min",1.9 ± 0.05%
same,percentage of diffused epinephrine (%),"pH 6.8, 45 min",7.0 ± 3.34%
same,percentage of diffused epinephrine (%),"pH 6.8, 60 min",13.8 ± 0.04%
same,percentage of diffused epinephrine (%),"pH 6.8, 75 min",14.0 ± 0.05%
same,percentage of diffused epinephrine (%),"pH 6.8, 90 min",22.0 ± 1.33%
same,cumulative permeated epinephrine (20 mg) per area,"pH 7.4, 5 min",18.1 ± 0.7 μg/cm^2
same,percentage of diffused epinephrine (%),"pH 7.4, 5 min",0.3 ± 0.01%
same,cumulative permeated epinephrine (20 mg) per area,"pH 7.4, 10 min",22.2 ± 1.3 μg/cm^2
same,percentage of diffused epinephrine (%),"pH 7.4, 10 min",0.3 ± 0.02%
same,cumulative permeated epinephrine (20 mg) per area,"pH 7.4, 15 min",29.2 ± 1.1 μg/cm^2
same,percentage of diffused epinephrine (%),"pH 7.4, 15 min",0.5 ± 0.02%
same,cumulative permeated epinephrine (20 mg) per area,"pH 7.4, 20 min",33.1 ± 0.6 μg/cm^2
same,percentage of diffused epinephrine (%),"pH 7.4, 20 min",0.5 ± 0.01%
same,cumulative permeated epinephrine (20 mg) per area,"pH 7.4, 30 min",145.8 ± 3.8 μg/cm^2
same,percentage of diffused epinephrine (%),"pH 7.4, 30 min",2.3 ± 0.06%
same,cumulative permeated epinephrine (20 mg) per area,"pH 7.4, 45 min",232.4 ± 6.6 μg/cm^2
same,percentage of diffused epinephrine (%),"pH 7.4, 45 min",3.6 ± 0.10%
same,cumulative permeated epinephrine (20 mg) per area,"pH 7.4, 60 min",810.2 ± 156.9 μg/cm^2
same,percentage of diffused epinephrine (%),"pH 7.4, 60 min",12.7 ± 2.46%
same,cumulative permeated epinephrine (20 mg) per area,"pH 7.4, 75 min",1644.8 ± 317.7 μg/cm^2
same,percentage of diffused epinephrine (%),"pH 7.4, 75 min",25.8 ± 1.99%
same,cumulative permeated epinephrine (20 mg) per area,"pH 7.4, 90 min",2316.0 ± 4.6 μg/cm^2
same,percentage of diffused epinephrine (%),"pH 7.4, 90 min",36.4 ± 0.07%
same,cumulative permeated epinephrine (20 mg) per area,"pH 8, 5 min",283.6 ± 1.7 μg/cm^2
same,percentage of diffused epinephrine (%),"pH 8, 5 min",4.5 ± 0.03%
same,cumulative permeated epinephrine (20 mg) per area,"pH 8, 10 min",367.9 ± 3.0 μg/cm^2
same,percentage of diffused epinephrine (%),"pH 8, 10 min",5.8 ± 0.05%
same,cumulative permeated epinephrine (20 mg) per area,"pH 8, 15 min",491.3 ± 9.3 μg/cm^2
same,percentage of diffused epinephrine (%),"pH 8, 15 min",7.7 ± 0.15%
same,cumulative permeated epinephrine (20 mg) per area,"pH 8, 20 min",700.0 ± 7.0 μg/cm^2
same,percentage of diffused epinephrine (%),"pH 8, 20 min",11.0 ± 0.11%
same,cumulative permeated epinephrine (20 mg) per area,"pH 8, 30 min",967.0 ± 14.4 μg/cm^2
same,cumulative permeated epinephrine (20 mg) per area,"pH 8, 45 min",1325.7 ± 11.7 μg/cm^2
same,cumulative permeated epinephrine (20 mg) per area,"pH 8, 60 min",1902.2 ± 19.1 μg/cm^2
same,percentage of diffused epinephrine (%),"pH 8, 60 min",29.9 ± 0.30%
same,cumulative permeated epinephrine (20 mg) per area,"pH 8, 75 min",2667.9 ± 30.7 μg/cm^2
same,percentage of diffused epinephrine (%),"pH 8, 75 min",41.9 ± 0.48%
same,cumulative permeated epinephrine (20 mg) per area,"pH 8, 90 min",3226.6 ± 29.9 μg/cm^2
same,percentage of diffused epinephrine (%),"pH 8, 90 min",50.7 ± 0.47%
